Results as given in US11673889B2, “Substituted imidazo[4,5-c][1,8]naphthyridines as phosphodiesterase inhibitors” (Nanjing Zhengxiang Pharmaceuticals Co., Ltd., priority 2019, dated 2023).

The chains behind the UniProt entries cited, without tags or fusion partners. Residues count along the entry.
UniProt P22413, whole entry: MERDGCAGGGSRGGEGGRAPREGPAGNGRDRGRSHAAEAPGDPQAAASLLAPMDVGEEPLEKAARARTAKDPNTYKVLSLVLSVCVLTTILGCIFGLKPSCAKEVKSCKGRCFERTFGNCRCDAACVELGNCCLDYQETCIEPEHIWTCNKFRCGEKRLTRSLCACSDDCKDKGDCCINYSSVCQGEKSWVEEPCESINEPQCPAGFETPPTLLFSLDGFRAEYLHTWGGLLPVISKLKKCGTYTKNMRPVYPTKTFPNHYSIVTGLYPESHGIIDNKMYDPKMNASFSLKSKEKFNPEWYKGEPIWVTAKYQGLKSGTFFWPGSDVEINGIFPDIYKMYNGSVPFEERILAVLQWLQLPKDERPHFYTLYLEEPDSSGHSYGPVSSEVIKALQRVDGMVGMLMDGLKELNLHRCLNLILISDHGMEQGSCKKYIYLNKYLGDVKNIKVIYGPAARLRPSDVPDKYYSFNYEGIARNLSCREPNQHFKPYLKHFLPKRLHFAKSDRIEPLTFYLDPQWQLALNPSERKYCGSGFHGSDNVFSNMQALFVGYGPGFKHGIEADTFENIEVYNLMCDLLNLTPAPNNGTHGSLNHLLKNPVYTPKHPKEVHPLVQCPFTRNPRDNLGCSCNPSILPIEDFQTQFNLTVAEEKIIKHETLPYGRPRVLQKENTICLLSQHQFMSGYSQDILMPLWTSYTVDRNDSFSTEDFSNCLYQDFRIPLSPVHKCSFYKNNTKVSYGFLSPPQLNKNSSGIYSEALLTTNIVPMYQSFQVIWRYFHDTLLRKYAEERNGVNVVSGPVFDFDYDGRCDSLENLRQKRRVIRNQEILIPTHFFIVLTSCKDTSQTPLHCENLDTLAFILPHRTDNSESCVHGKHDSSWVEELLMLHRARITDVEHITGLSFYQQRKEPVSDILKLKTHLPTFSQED
UniProt P22413, 103-925 limits assumed: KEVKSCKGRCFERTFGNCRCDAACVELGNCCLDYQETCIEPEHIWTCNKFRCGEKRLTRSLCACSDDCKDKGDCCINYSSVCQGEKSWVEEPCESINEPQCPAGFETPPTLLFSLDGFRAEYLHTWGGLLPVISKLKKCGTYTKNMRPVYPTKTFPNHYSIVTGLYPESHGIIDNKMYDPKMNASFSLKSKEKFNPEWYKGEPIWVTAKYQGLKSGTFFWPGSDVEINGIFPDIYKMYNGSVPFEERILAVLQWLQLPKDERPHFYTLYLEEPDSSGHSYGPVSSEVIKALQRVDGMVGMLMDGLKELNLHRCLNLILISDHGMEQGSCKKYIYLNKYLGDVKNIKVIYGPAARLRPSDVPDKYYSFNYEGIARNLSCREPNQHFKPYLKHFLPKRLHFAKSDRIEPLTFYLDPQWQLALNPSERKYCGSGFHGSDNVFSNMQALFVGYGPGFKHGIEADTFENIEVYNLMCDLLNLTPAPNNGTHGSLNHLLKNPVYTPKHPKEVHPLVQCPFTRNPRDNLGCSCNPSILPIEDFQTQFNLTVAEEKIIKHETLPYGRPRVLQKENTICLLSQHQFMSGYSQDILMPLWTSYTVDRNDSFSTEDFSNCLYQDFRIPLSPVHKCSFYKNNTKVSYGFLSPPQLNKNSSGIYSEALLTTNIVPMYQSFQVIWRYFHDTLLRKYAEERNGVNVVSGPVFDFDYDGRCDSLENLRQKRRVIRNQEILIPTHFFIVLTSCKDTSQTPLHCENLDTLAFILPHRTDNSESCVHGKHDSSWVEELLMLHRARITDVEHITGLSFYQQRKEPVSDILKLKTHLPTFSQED

How the values were obtained:
[1] = target: T1, human soluble ENPP1 (Homo sapiens, UniProt P22413); assay: ENPP1 activity assay using p-Nitrophenyl-5′-TMP as a substrate; settings: read-out: TMP-pNP (IC50), 20 ng human soluble ENPP1, Tris buffer pH 9.5
[2] = target: T1, human soluble ENPP1; assay: ENPP1 activity assay using p-Nitrophenyl-5′-AMP as a substrate; assay type: biochemical; settings: read-out: AMP-pNP (IC50), 35 ng human soluble ENPP1, Tris buffer pH 9.5
[3] = target: ENPP-1, MDA-MB-231 cells (Homo sapiens, UniProt P22413); settings: for inhibition: 20 µM
[4] = Pharmacokinetics in mice; settings: male CD-1 mice; 1 mg/kg, iv
Procedure: A dosing solution of test sample was prepared at 1.0 mg/mL in 5% DMSO/40% PEG400/55% water and administered to male CD-1 mice (4-6 weeks old, 20-30 grams, 3 animals each group) via intravenous (IV) bolus at 1 mg/kg and by oral gavage (PO) at 5 mg/kg. Blood samples (˜0.03 mL each time point) were collected via the jugular vein into tubes containing sodium heparin as the anticoagulant at 0.033, 0.083, 0.25, 0.5, 1, 2, 4, 8 and 24 hours post dose for IV administration and 0.083, 0.25, 0.5, 1, 2, 4, 8 and 24 hours post dose for PO administration. The blood samples were then centrifuged for 5 minutes in a centrifuge refrigerated at 4° C. The resultant plasma samples were analyzed using LC/MS/MS to determine concentrations of test sample. Non-compartmental model with WinNonlin (Phoenix™, version 8.0) software was used to calculate pharmacokinetic (PK) parameters.

Question: Which results are given for COc1ccc2c(c1)nnc1cnn(Cc3ccc(S(N)(=O)=O)c(F)c3)c12?
Answer: IC50 [1]: 2.9 nM; IC50 [2]: 8.2 nM; IC50 [3]: 2000 nM; inhibition [3]: 70%

Question: Which results are given for COc1ccc2c(n1)nc(C)c1nc(C)n(Cc3ccc(P(=O)(O)O)cn3)c12?
Answer: IC50 [3]: 480 nM; inhibition [3]: 80%

Question: Which IC50 [1] does the source give for COc1ccc2c(c1)nnc1[nH]c(=O)n(Cc3ccc(S(N)(=O)=O)cc3)c12 here?
Answer: 1.1 nM

Question: And the IC50 [2]?
Answer: 2.4 nM

Question: What about the “AUC” value [4] of the same compound?
Answer: 429 ng·h/mL

Question: And the “Cl” value [4]?
Answer: 39 mL/min/kg

Question: And the “T1/2” value [4]?
Answer: 1.2 h

Question: What about the “Vdss” value [4] of the same compound?
Answer: 1.6 L/kg

Question: What about the IC50 [3] of the same compound?
Answer: 1800 nM

Question: And the inhibition [3]?
Answer: 59%
